Drawing on ChEMBL document CHEMBL4665789, “Discovery of Novel pERK1/2- or β-Arrestin-Preferring 5-HT Receptor-Biased Agonists: Diversified Therapeutic-like versus Side Effect Profile” (J Med Chem, 2020), this text covers Papp for one molecule.

A short description of this data set: Permeability of the compound at 100 uM measured after 40 mins by PAMPA. The format is ADME. The note with it: read-out: permeability. (The PAMPA barrier holds no transporters, so it reflects passive diffusion.)

Consider `CCn1cc(C(=O)O)c(=O)c2cc(F)c(N3CCNCC3)cc21` [NORFLOXACIN], for which the Papp at 40 min, 100 µM came out at 0.56 ×10⁻⁶ cm/s.
